Data on 1 compound can be found in ChEMBL document CHEMBL4011652, “Discovery of Novel Potent Reversible and Irreversible Myeloperoxidase Inhibitors Using Virtual Screening Procedure” (J Med Chem, 2017).

Assay [1] has as its target T1, Myeloperoxidase (Homo sapiens) (UniProt P05164).
T1 sequence (whole entry): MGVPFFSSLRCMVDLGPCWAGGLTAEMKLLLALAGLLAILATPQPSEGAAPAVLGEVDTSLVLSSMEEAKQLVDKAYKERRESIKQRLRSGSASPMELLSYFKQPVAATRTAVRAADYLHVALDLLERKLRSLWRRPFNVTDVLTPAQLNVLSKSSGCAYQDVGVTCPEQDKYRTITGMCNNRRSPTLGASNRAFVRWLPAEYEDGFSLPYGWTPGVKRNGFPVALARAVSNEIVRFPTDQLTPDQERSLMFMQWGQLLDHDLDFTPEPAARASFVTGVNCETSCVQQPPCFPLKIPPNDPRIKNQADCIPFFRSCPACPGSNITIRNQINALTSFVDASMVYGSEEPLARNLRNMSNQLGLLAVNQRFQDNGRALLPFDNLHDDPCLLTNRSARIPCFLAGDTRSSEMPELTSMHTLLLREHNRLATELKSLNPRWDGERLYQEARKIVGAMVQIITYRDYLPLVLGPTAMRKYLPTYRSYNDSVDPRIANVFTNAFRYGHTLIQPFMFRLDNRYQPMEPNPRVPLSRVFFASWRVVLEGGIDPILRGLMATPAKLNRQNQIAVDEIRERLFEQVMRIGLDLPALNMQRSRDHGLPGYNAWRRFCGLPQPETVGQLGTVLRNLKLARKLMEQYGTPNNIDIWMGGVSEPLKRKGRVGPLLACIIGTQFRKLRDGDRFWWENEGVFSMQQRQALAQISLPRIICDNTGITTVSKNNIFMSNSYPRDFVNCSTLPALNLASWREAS
The assay can be described thus: Inhibition of recombinant MPO (unknown origin) assessed as reduction in TMB peroxidation by measuring residual activity at 5 uM in presence of H2O2 incubated for 5 mins followed by 100 fold enzyme dilution relative to control.

Assay [2] addresses T1, Myeloperoxidase (Homo sapiens). The assay can be described thus: Inhibition of MPO (unknown origin) assessed as apparent bi-molecular rate constant for PorFe(4)=O radical reduction by stopped-flow spectroscopic analysis.
Assay [3] has the same target. As to the kind of experiment: Inhibition of recombinant MPO (unknown origin) assessed as reduction in TMB peroxidation by measuring residual activity at 5 uM in absence of H2O2 incubated for 5 mins followed by 100 fold enzyme dilution relative to control.
For assay [4] the target is unchanged. The assay can be described thus: Reversible inhibition of recombinant MPO (unknown origin) assessed as reduction in TMB peroxidation at 5 uM in presence of NaCl and tyrosine incubated for 5 mins followed by H2O2 addition measured after 10 mins by spectrophotometric method.
Assay [5] shares this target. The assay can be described thus: Inhibition of recombinant MPO (unknown origin) assessed as reduction in TMB peroxidation by measuring residual activity at 5 uM in presence of H2O2 and NaCl incubated for 5 mins followed by 100 fold enzyme dilution relative to control.
The target is the same in assay [6]. The assay can be described thus: Inhibition of MPO (unknown origin) assessed as apparent bi-molecular rate constant for PorFe(4)-OH reduction by stopped-flow spectroscopic analysis.

Active and inactive are the calls of the source. No cut-off for these calls is given here.

`CCN(CC)CCNC(=O)c1cc(Cl)c(N)cc1OC` [METOCLOPRAMIDE]: the Activity was 86% in assay [1], 91% in assay [3] and 83% in assay [5]. Besides, the Kapp in assay [2] worked out at 2.6 ×10⁶ /M/s; in assay [6], 180 M⁻¹ s⁻¹. Further, the inhibition result in assay [4] is “Active”.
